Assay results published in patent EP4834909A1, “CRYSTAL FORM OF COMPOUND CONTAINING TRICYCLIC HETEROARYL, AND PREPARATION METHOD THEREFOR AND USE THEREOF” (dated 2026).

Tests used:
[1] = Solubility test of crystal form in water; settings: class per Pharmacopoeia of the People's Republic of China (2020 Edition, Volume II)
Source text: Appropriate amounts of the amorphous sample from the Preparative Example, the crystal form I sample from Example 3, and the crystal form II sample from Example 5 were weighed and subjected to solubility tests in water, respectively.

[2] = Stability test of crystal form (high temperature, high humidity, light exposure); settings: for stability (summary in words): high temperature (60°C), high humidity (25°C/75% RH), light exposure (4500 ± 500 lux), 5 and 10 days
Procedure: Appropriate amounts of the amorphous sample from the Preparative Example, the crystal form I sample from Example 3, and the crystal form II sample from Example 5 were weighed and placed under conditions of high temperature (60°C), high humidity (25°C/75% RH) and light exposure (4500 ± 500 lux) for 5 and 10 days, respectively. The resulting data were compared with those at day 0. Table 4: Stability test results for amorphous form, crystal form I, and crystal form II

[3] = Hygroscopicity test of crystal form; settings: 25°C ± 1°C for 24 h; for average weight gain: desiccator with saturated ammonium chloride or ammonium sulfate solution
Procedure: Appropriate amounts of the amorphous sample from the Preparative Example, the crystal form I sample from Example 3, and the crystal form II sample from Example 5 were weighed. In accordance with the Guidelines for the Testing of Hygroscopicity of Drugs, the samples were placed in a suitable constant-temperature desiccator (with a saturated solution of ammonium chloride or ammonium sulfate at the bottom) at 25°C ± 1°C for 24 h to perform the hygroscopicity test.

[4] = Micromeritic property testing; settings: crystal form I sample from Example 3
Procedure: The micromeritic properties of the crystal form I sample from Example 3 were tested.

[5] = Milling stability of crystal form I (air jet milling, XRPD); settings: jet mill, feed gas pressure 6-7 bar, pulverizing gas pressure 6-7 bar
Source text: An appropriate amount of the crystal form I sample from Example 3 was pulverized using a laboratory-scale jet mill (feed gas pressure: 6-7 bar, pulverizing gas pressure: 6-7 bar). The pulverized sample was subjected to XRPD detection, and no change in crystal form was observed. Table 5: X-ray powder diffraction peaks of crystal form I after air jet milling

[6] = High humidity (25°C/75% RH), 5 days
[7] = High humidity (25°C/75% RH), 10 days
[8] = High temperature (60°C), 5 days
[9] = High temperature (60°C), 10 days
[10] = Light exposure (4500 ± 500 lux), 5 days
[11] = Light exposure (4500 ± 500 lux), 10 days

Row | Compound | Appearance [2, 6] | Crystal form [2, 6] | Maximum single impurity (%) [2, 6] [%] | Total impurity (%) [2, 6] [%] | Appearance [2, 7] | Crystal form [2, 7] | Maximum single impurity (%) [2, 7] [%] | Total impurity (%) [2, 7] [%] | Appearance [2, 8] | Crystal form [2, 8] | Maximum single impurity (%) [2, 8] [%] | Total impurity (%) [2, 8] [%] | Appearance [2, 9] | Crystal form [2, 9] | Maximum single impurity (%) [2, 9] [%] | Total impurity (%) [2, 9] [%] | Appearance [2, 10] | Crystal form [2, 10] | Maximum single impurity (%) [2, 10] [%] | Total impurity (%) [2, 10] [%] | also measured
1 | NC(=O)c1cnc(Nc2ccc3c(c2)OC[C@H]2CN(S(=O)(=O)C4CC4)CCN32)nc1NC1CC1 [Amorphous form] | Pale yellow solid | Unchanged | 1.51 | 7.03 | Pale yellow solid | Unchanged | 1.46 | 7.85 | Pale yellow solid | Unchanged | 1.54 | 6.92 | Pale yellow solid | Unchanged | 3.17 | 9.71 | Pale yellow solid | Unchanged | 1.45 | 7.16 | solubility in water (solubility class) [1]: fell within the same solubility class; Appearance [2, 11]: Pale yellow solid; Crystal form [2, 11]: Unchanged; Maximum single impurity (%) [2, 11]: 1.63%; Total impurity (%) [2, 11]: 8.00%; Appearance ([2]; day 0): Pale yellow solid; Maximum single impurity (%) ([2]; day 0): 1.58%; Total impurity (%) ([2]; day 0): 6.91%; stability (summary in words) [2]: underwent degradation under conditions of high temperature, high humidity, and light exposure; average weight gain ([3]; listed as amorphous sample): 3.0%; hygroscopicity (classification) ([3]; listed as amorphous sample): hygroscopicity
2 | NC(=O)c1cnc(Nc2ccc3c(c2)OC[C@H]2CN(S(=O)(=O)C4CC4)CCN32)nc1NC1CC1 [Crystal form I] | Off-white solid | Unchanged | 0.02 | 0.04 | Off-white solid | Unchanged | 0.02 | 0.05 | Off-white solid | Unchanged | 0.02 | 0.05 | Off-white solid | Unchanged | 0.02 | 0.05 | Off-white solid | Unchanged | 0.02 | 0.05 | Angle of repose [4]: 38°; Bulk density [4]: 0.272 g/mL; Hausner ratio [4]: 1.30; Tap density [4]: 0.354 g/mL; crystal form after air jet milling (XRPD) [5]: no change in crystal form was observed; solubility in water (solubility class) [1]: fell within the same solubility class; Appearance [2, 11]: Off-white solid; Crystal form [2, 11]: Unchanged; Maximum single impurity (%) [2, 11]: 0.02%; Total impurity (%) [2, 11]: 0.06%; Appearance ([2]; day 0): Off-white solid; Maximum single impurity (%) ([2]; day 0): 0.01%; Total impurity (%) ([2]; day 0): 0.02%; stability (summary in words) [2]: essentially no changes in appearance, related substances, or crystal form; hygroscopicity (classification) [3]: slight hygroscopicity; average weight gain [3]: 0.8%
3 | NC(=O)c1cnc(Nc2ccc3c(c2)OC[C@H]2CN(S(=O)(=O)C4CC4)CCN32)nc1NC1CC1 [Crystal form II] | Off-white solid | Unchanged | 0.04 | 0.06 | Off-white solid | Unchanged | 0.04 | 0.05 | Off-white solid | Transformed | 0.04 | 0.06 | Off-white solid | Transformed | 0.03 | 0.04 | Off-white solid | Transformed | 0.04 | 0.05 | Appearance [2, 11]: Off-white solid; Crystal form [2, 11]: Transformed; Maximum single impurity (%) [2, 11]: 0.04%; Total impurity (%) [2, 11]: 0.05%; Appearance ([2]; day 0): Off-white solid; Crystal form ([2]; day 0): Unchanged; Maximum single impurity (%) ([2]; day 0): 0.03%; Total impurity (%) ([2]; day 0): 0.04%; stability (summary in words) [2]: the crystal form underwent a transformation under conditions of high-temperature and light exposure; hygroscopicity (classification) [3]: significant hygroscopicity; average weight gain [3]: 47.9%
